This test relates to dengue virus TSV01. Nature of the test: Plaque assay, wild type and viperin over expressing A549 cells with IFN-β pre-treatment, infected with TSV01. Type of test: cell-based, dengue virus serotype 2. The settings on record: 12 hrs pre-treatment with IFN-β 500 U/ml in combination with viperin overexpression; A549, MOI 1, 48 hrs; FIG. 7E. On the procedure: For plaque assay, BHK-21 cells are cultured ON in 24 well plates before media is removed and serial dilutions (10-fold) of cell culture supernatants added to individual wells. Plates are incubated for 1 hr before media is aspirated and replaced with 0.5 ml of 0.8% methyl-cellulose medium (with 2% FBS). Plates are then incubated for 5 days before the media is removed and cells fixed in 4% formaldehyde for 20 min then rinsed in water and stained with crystal violent for 20 min and rinsed again. Plaques are counted manually and concentrations of plaque forming units per ml (pfu/ml) of the sample cell culture supernatant calculated.
Cells are cultured ON in 6 well plates before IFN-β (IMCB, Singapore), at a final concentration of 500 U/ml, is added to each well while control wells remained untreated. Twelve hours post IFN-β-treatment, cell culture medium is removed, replaced with fresh medium, and the cells infected with dengue virus (TSV01; MOI 1) for 48 hrs before cell culture supernatants are removed and the number of plaque forming units determined by plaque assay.

B1: IFN-β: interferon beta (IMCB, Singapore), 500 U/ml pre-treatment of A549 cells (protein, UniProt P01574 22-187, looked up)
Interferon beta: MSYNLLGFLQRSSNFQCQKLLWQLNGRLEYCLKDRMNFDIPEEIKQLQQFQKEDAALTIYEMLQNIFAIFRQDSSSTGWNETIVENLLANVYHQINHLKTVLEEKLEKEDFTRGKLMSSLHLKRYYGRILHYLKAKEYSHCAWTIVRVEILRNFYFINRLTGYLRN
On to B1, for which the “anti-viral effect (plaque forming units)” value is listed as “greatest anti-viral effect”.
